Assays:
AhpC C166S = experiment: spectroscopic properties of probe conjugated to purified AhpC C166S (sulfenic acid conjugation); assay type: biochemical
From the text: In these experiments, the incorporation of a blocking group inhibits other two-proton processes, such as the Knoevenagel condensation of AMCs with aldehydes. F-AMC analogues display a higher degree of selectivity.
This is coupled with a significant excitation red-shifting of the primary excitation peak near 490 nm, providing an excellent excitation ratiometric fluorescent probe using the common 405 nm and 488 confocal lines (FIG. 5). […] Next, whether DiNap-1F could be used for ratiometric imaging sulfenylation in live cells by Total Internal Reflectance Fluorescence (TIRF) microscopy was tested.

[1] = test system: endogenous sulfenylated proteins in bacterial cell lysates, including AhpC C166S; assay type: biochemical; settings: for labeling of endogenous sulfenylated proteins: bacterial cell lysates, FIGS. 3A and B

Compound | change of excitation/emission spectra after conjugation (AhpC C166S; purified labeled AhpC C166S) | excitation ratiometric fluorescence change (AhpC C166S; upon conjugation to sulfenic acid, after only a few minutes) [fold] | labeling of endogenous sulfenylated proteins [1] | competition with DiNap-1F labeling ([1]; FIG. 3E)
Nc1ccc2c3c(cccc13)C(=O)C(F)=C2O [DiNap-1F] | dramatic loss of the excitation peak at 400 nm | > 2 | efficiently label many endogenous sulfenylated proteins | 
CC1(C)CC(=O)CC(=O)C1 [Dimedone, 5,5-dimethylcyclohexane-1,3-dione] |  |  |  | effectively competed
C#CCCCC1CCC(=O)CC1=O (centres unmarked) [Dyn2 RhoN3] |  |  | efficiently label many endogenous sulfenylated proteins | 

— patent US10718778B2, “Compositions and methods for detecting protein sulfenylation” (THE REGENTS OF THE UNIVERSITY OF MICHIGAN, priority 2014, dated 2020)
